For this series, the system named is hiPSO-derived IECs.

As for ivermectin, the IEC-selective dose-dependent cytotoxicity result is listed as “identified”.

Values taken from paper PMC10070462, “Drug cytotoxicity screening using human intestinal organoids propagated with extensive cost-reduction strategies” (Scientific Reports, 2023).
